Biological target: BCRP (Homo sapiens, UniProt Q9UNQ0)
Assay: Inhibition of RSV transport in BCRP-expressing membrane vesicles
Assay type: biochemical
Set-up: purchased GenoMembrane Co., Ltd. (Yokohama, Japan) GM0008; host or cells: Sf9 insect cells
Conditions: 100 μM
Protocol: The vesicular transport activity was determined by the 96-well rapid filtration method in BCRP- and MRP2-expressing membrane vesicles. For samples in the presence of ATP, 10 μL vesicle (final concentration, 1 mg protein/mL), 5 μL buffer A2 (replaced by 100 μM reduced glutathione for MRP2 incubations), 10 μL of varying concentrations of CP or CPC or novobiocin (BCRP inhibitor, final concentration of 100 μM), or benzbromarone (MRP2 inhibitor, final concentration of 100 μM) were pre-incubated at 37°C for 5 min. Meanwhile, 5 μL RSV (final concentration, 1 μM) and 20 μL reagent C2 were pre-incubated at 37°C for 5 min. Then, the transport was initiated by mixing them in a 50 μL reaction system and incubated for the designated time at 37°C. The transport was terminated by adding 200 μL of cold buffer B2 at 4°C. Then, the mixture was filtered using a 96-well filter plate. After washing the vesicles five times with 200 μL of cold buffer B2 at 4°C, the vesicles were lysed with 50 μL of 80% […] twice and then centrifuged at 2000 rpm/min for 2 min. Lysates were collected and then centrifuged at 12,000 rpm/min for 5 min. The supernatants were injected onto the LC-MS/MS. The same procedures were applied to AMP-containing samples except that reagent D2 was used instead of reagent C2. All experiments were performed in quadruplicate.
Statistical analysis was performed using SPSS ver. […]

Chains of the proteins cited; added tags and fusions are not shown. Lines headed by an entry give the natural chain unless they say otherwise; changes in a name come on top.
UniProt Q9UNQ0: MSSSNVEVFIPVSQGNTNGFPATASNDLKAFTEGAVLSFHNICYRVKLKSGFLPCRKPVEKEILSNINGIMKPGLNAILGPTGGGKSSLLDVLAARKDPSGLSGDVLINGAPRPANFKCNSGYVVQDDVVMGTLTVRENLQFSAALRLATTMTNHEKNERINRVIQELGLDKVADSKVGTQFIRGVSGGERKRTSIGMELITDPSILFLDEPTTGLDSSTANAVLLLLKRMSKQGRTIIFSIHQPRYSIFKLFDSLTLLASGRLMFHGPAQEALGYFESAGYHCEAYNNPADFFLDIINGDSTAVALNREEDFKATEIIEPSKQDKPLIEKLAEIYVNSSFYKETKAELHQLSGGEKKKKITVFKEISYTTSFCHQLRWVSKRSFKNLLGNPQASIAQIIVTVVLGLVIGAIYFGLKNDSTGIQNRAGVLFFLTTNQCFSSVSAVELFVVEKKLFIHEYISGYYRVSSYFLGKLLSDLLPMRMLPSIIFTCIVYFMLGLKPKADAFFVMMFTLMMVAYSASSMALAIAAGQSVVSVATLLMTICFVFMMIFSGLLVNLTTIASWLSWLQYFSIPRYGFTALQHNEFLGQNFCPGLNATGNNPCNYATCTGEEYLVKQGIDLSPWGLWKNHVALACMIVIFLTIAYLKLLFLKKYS

CO[C@@H]1[C@@H](OC(N)=O)[C@@H](O)[C@H](Oc2ccc3c(O)c(NC(=O)c4ccc(O)c(CC=C(C)C)c4)c(=O)oc3c2C)OC1(C)C [novobiocin]
Inhibition of RSV uptake into BCRP vesicles (positive control): significantly inhibited
